Data from patent publication US6949522B2, “β-2′- or 3′-halonucleosides” (Pharmasset, Inc., priority 2001, dated 2005).

Columns and labels:
HepG2 = test: Toxicity assay (MTS/MTT dye), HepG2 cells; conditions: read-out: Cytotoxicity HepG2 IC50; HepG2, three day-incubation (Table 3)
Protocol: (§1) After a three day-incubation for HepG2, or 5 days for human PBM cells, cell viability and mitochondrial activity were measured in a colorimetric assay using the MTS- or MTT dye method (Promega, Madison, Wis.).

human PBM cells = test: Toxicity assay (MTS/MTT dye), human PBM cells; conditions: read-out: Cytotoxicity PBM IC50, 5 days incubation
Protocol: as §1

[1] = tested on: mitochondrial cytochrome C oxidase subunit II (COXII) gene; type: cell-based, human; conditions: HepG2, 10 μM, 7 days; for COXIINrDNA (range) relative to control: COXII DNA normalized to rDNA, 2-ΔΔCt
From the text: The Q-RT-PCR technology was also used to evaluate potential mitochondrial γ-DNA polymerase inhibition by the compounds of the present invention in relevant human cells. […] Since active nucleoside compounds in the triphosphate form lack a 3′-OH, thereby stopping virus replication by chain termination, there is a concern that these nucleoside analogues are also substrates for the human DNA polymerase γ, resulting in inhibition of mitochondrial DNA replication and subsequently toxic side effects (11, 19). In an attempt to provide direct quantifiable data on mitochondrial DNA levels intracellular, a Q-PCR technology was designed and relative quantification of COXII DNA levels were calculated using the comparative Ct method. […] Also, in agreement with previous observations, no changes in normalized mitochondrial DNA levels were observed after FIAU and D4T treatment (6, 8, 23).
Low passage number HepG2 cells, obtained from American Tissue Culture Collection (ATCC, Manassas, Va.) were seeded at 5,000 cells/well in collagen-coated 96-well plates. Test compounds were added to the media to obtain a final concentration of 10 μM. On culture day 7, cellular nucleic acids were prepared by using commercially available columns (RNeasy 96 kit, Qiagen). […] The mitochondrial cytochrome C oxidase subunit II (COXII) gene and the β-actin or rRNA gene were amplified from 5 μL with a multiplex Q-PCR protocol using the suitable primers and probes for both target and reference (designed using the Primer Express software, Applied Biosystems); • for COXII. • sense primer 5′-[…]-3′ (Sequence 7); • probe 5′-TET-[…]-TAMRA-3′ (Sequence 8); and • antisense probe 5′-[…]-3′ (Sequence 9); • for exon 3 of β-actin (GenBank E01094): • sense primer 5′-[…]-3′ (Sequence 10); • probe 5′-6FAM-[…]-TAMRA-3′ (Sequnece 11); and • antisense probe 5′-[…]-3′ (Sequence 12).
The rRNA gene primers and probes were purchased from Applied Biosystems. Standard curves using 1-log diluted total HepG2 DNA were linear over more than 5 logs. In addition, efficiencies of target (COXII DNA) and reference (β-actin DNA or rRNA) amplification were approximately equal, because the slope of the ΔCt line (Ct β-actin minus Ct mitochondrial) was less than 0.1 (not shown). Since equal amplification efficiencies were obtained for both genes, the comparative cycle threshold (Ct) method was used to investigate potential inhibition of the mitochondrial DNA polymerase γ. The comparative Ct method uses arithmetic formulas in which the amount of target (COXII gene) is normalized to an endogenous reference (β-actin gene or rRNA gene) and is relative to a calibrator (no drug control at day 7). The arithmetic formula for this approach is given by 2-ΔΔCt (User bulletin # 2, Applied Biosystems).
In order to study the consequences of possible inhibitory effects of these compounds on host DNA polymerases, nuclear and rnitochondrial DNA levels were quantified and compared to no-treatment controls. Cells were incubated for 7 days with 10 μM of each compound, followed by total nucleic acid extractions and multiplex Q-PCR of the rRNA gene and the mitochondrial COXII gene. Nucleic acids from cells exposed to the control compounds were also amplified in multiplex for mitDNA and the β-actin gene. The results are presented in Table 4 using the comparative Ct method.

Substance	IC50 (HepG2)	IC50 (human PBM cells)	COXIINrDNA (range) relative to control [1]	Average ΔCt ± SD COXII DNA [1]	Average ΔΔCt ± SD COXII-rDNA [1]
β-D-2′,3′-didehydro-2′,3.′-dideoxy-3′-fluoro-5-fluoro cytidine [Compound 10-F]	> 100 µM	> 100 µM	1.04 (1.34-0.80)	−0.49 ± 0.31	−0.05 ± 0.37
β-L-2′,3′-didehydro-2′,3.′-dideoxy-3′-fluoro-5-fluoro cytidine [Compound 23-F]	> 100 µM	> 100 µM	1.40 (0.93-2.13)	−0.3 ± 0.46	−0.49 ± 0.60
